The list shows a part of the results, in another mix than the full data. Active and inactive are the calls of the source.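 How the source made its calls: active means signal ratio slope over the read window, or its plate-corrected B-score, at least 3 SD from the plate mean, either direction; inactive means the rest.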

Chains of the proteins cited; added tags and fusions are not shown. Lines headed by an entry give the natural chain unless they say otherwise; changes in a name come on top.
UniProt P48048: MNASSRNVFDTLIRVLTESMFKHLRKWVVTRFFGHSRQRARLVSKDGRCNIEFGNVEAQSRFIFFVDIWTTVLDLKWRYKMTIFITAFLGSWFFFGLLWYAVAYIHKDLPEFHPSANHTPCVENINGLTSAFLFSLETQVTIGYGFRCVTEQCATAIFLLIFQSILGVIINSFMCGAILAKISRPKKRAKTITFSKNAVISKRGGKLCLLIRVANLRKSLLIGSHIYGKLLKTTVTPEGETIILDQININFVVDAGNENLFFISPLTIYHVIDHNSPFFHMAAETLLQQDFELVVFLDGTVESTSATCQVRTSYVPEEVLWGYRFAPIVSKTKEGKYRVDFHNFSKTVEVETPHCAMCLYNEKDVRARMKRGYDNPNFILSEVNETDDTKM

In the experiment the target is ATP-sensitive inward rectifier potassium channel 1 (Homo sapiens) (UniProt P48048). Put plainly: Kir1.1 channel activity modulation, library screen – cell-based, thallium flux, MLSMR library, primary screen (AID 1918).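 Further: B-score of the F/F0 ratio slope over 7 to 12 s after thallium.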 The settings on record: Tet-inducible ROMK, thallium flux fluorescence; at 10 µM; actives lie on both sides.
For `O=C(NC(Sc1ccncn1)C(Cl)(Cl)Cl)c1ccccc1` (stereo not given), the B-score was inactive: -0.216.
To `Oc1ccccc1CNc1ccccn1` belongs inactive: -1.57; to `Nc1cc(N)c2nonc2c1[N+](=O)[O-]`, inactive: -1.17.
As for `Clc1ccc(Cl)c(NC2=NCC(CBr)S2)c1` (stereo not given), the B-score is inactive: -0.799.
To `Cc1ccc(OP(=O)(Nc2nccs2)Oc2ccc(C)cc2)cc1` belongs inactive: -0.859.
The value for `COc1ccccc1OP(=O)(Nc1ccc(C)cn1)Oc1ccccc1OC` was inactive: 0.549; that for `Cc1ccc(N/C(=N/P(=O)(N2CCOCC2)N2CCOCC2)N2CCOCC2)cc1` was inactive: -0.228.
The value for `NC(=O)c1cc([N+](=O)[O-])cc([N+](=O)[O-])c1N` was inactive: 0.646.
For the molecule `Cc1cc(SC(NC(=O)c2ccc(F)cc2)C(Cl)(Cl)Cl)ncn1` (stereo not given), the B-score was inactive: -0.817.
The value for `O=[N+]([O-])c1ncn(CCn2ncnc2[N+](=O)[O-])n1` was inactive: -0.528; that for `CC(C)(C)C(=O)NC(Sc1ccncn1)C(Cl)(Cl)Cl` (stereo not given) was inactive: 0.859; that for `CN(C)C(=O)OCCc1n(C)cc[n+]1C` was inactive: 0.376.
To `CC(C)=N/N=C(\N)N[N+](=O)[O-]` belongs inactive: -0.755; to `CCN(/C(=N/P(=O)(N1CCOCC1)N1CCOCC1)N1CCOCC1)c1ccc(OC)cc1`, inactive: 0.42; to `C[N+]1=C2C=CC=CC=C2SC12C([N+](=O)[O-])=CC([N+](=O)[O-])=C[C-]2[N+](=O)[O-]` (stereo not given), inactive: -0.515.
The value for `O=[N+]([O-])c1cc([N+](=O)[O-])c(CCNc2ccccc2)c([N+](=O)[O-])c1` was inactive: -0.53; that for `CCc1nc2c(n1)c1c(non1O)c1c2no[n+]1[O-]` was active: 2.78; that for `Cc1ccc(NP(=O)(Oc2ccccc2)Oc2ccccc2)nc1` was inactive: 0.482.
Regarding `COc1ccc(C2=NCC(CBr)S2)cc1` (stereo not given), the B-score is inactive: -1.03.
The value for `C(Cc1nn[nH]n1)Cc1nn[nH]n1` was inactive: 0.559; that for `O=[As](O)(c1ccccc1)c1ccc(O)cc1` was inactive: -0.0827.
To `O=[N+]([O-])c1ncn(CCn2cnc([N+](=O)[O-])n2)n1` belongs inactive: -0.0245; to `CC(=O)NC(SC(=S)N(C)C)C(Cl)(Cl)Cl` (stereo not given), inactive: -0.00543; to `O=P(Nc1ccccn1)(c1ccc(Br)cc1)c1ccc(Br)cc1`, inactive: -0.906.
For the molecule `CN(C)C(=O)Oc1noc2ccccc12`, the B-score was inactive: 0.718.
The value for `Cc1ccccc1OP(=O)(Nc1ccccn1)Oc1ccccc1C` was inactive: -0.556.
The value for `Cc1ccc(OP(=O)(Nc2ccccn2)Oc2ccc(C)cc2)cc1` was inactive: 1.08; that for `CC(=O)NC(SC(=S)N(CC(C)C)CC(C)C)C(Cl)(Cl)Cl` (stereo not given) was inactive: 0.701.
To `CCOC(=O)NC(Sc1ccccc1)C(Cl)(Cl)Cl` (stereo not given) belongs inactive: -0.43.
`Cc1ccc(NP(=O)(Oc2cccc(C)c2)Oc2cccc(C)c2)nc1`: the B-score was inactive: -0.823.
The value for `c1ccc(-c2nn[nH]n2)c(-c2nn[nH]n2)c1` was inactive: 0.979; that for `O=C(NC1CCS(=O)(=O)C1)NP(=S)(Oc1ccccc1)Oc1ccccc1` (stereo not given) was inactive: -1.15.
The value for `CCNC(=S)/N=C(\N)N[N+](=O)[O-]` was inactive: -0.0599.
To `CC(=O)Nc1ccc(Oc2c([N+](=O)[O-])cc([N+](=O)[O-])cc2[N+](=O)[O-])cc1` belongs inactive: 1.46.
Consider `CC(C)(C)C(=O)NC(Sc1ccccc1)C(Cl)(Cl)Cl` (stereo not given), for which the B-score was inactive: -0.289.
Consider `CCOc1ccc(C2=NCC(CBr)S2)cc1` (stereo not given), for which the B-score is inactive: 0.000355.
To `O=P1(Nc2nc3ccc(Cl)cc3s2)COc2ccccc2O1` (stereo not given) belongs inactive: 0.213; to `CCOP(=O)(Nc1cccc2ccccc12)OCC`, inactive: 0.875.
Take `COc1cc(C2NCCC3(OCCO3)C2(C)C)cc(OC)c1OC` (stereo not given): the B-score was inactive: -0.094.
The value for `Cc1ccc(NCCc2c([N+](=O)[O-])cc([N+](=O)[O-])cc2[N+](=O)[O-])cc1` was inactive: 0.648.
To `Cc1cccc(OCC(=O)OC2CN3CCC2CC3)c1` (stereo not given) belongs inactive: 0.328; to `O=[As](O)(O)c1cccnc1`, inactive: -0.249.
To `COc1cc(C(=O)NCC2(N3CCOCC3)CCCCC2)cc(Cl)c1OC(C)C` belongs inactive: -0.435; to `Nc1ccccc1[As](=O)(O)c1ccccc1`, inactive: 0.0232.
Take `O=P(Nc1nccs1)(Oc1ccccc1)Oc1ccccc1`: the B-score was inactive: 0.0459.
To `Nc1cccc([As](=O)(O)c2ccccc2)c1` belongs inactive: -0.292.
To `Cc1ccc(OCC(=O)OC2CN3CCC2CC3)cc1` (stereo not given) belongs inactive: -0.0693.
Regarding `O=P1(Nc2ccc(Br)cn2)COc2ccccc2OC1`, the B-score was inactive: -1.39.
Turning to `O=P1(Nc2ncccn2)COc2ccccc2OC1`, the B-score was inactive: 1.01.
Turning to `CN(C)C1(CNC(=O)c2ccc(S(C)(=O)=O)cc2)CCCCC1`, the B-score was inactive: -0.324.
For the molecule `CC1CCC(C(C)C)C(OP(=O)(Nc2ccccn2)c2ccccc2)C1` (stereo not given), the B-score is inactive: -0.876.
To `Clc1n[nH]nc1-c1nn[nH][15n]1` belongs inactive: 0.985; to `O=P1(Nc2ccccn2)COc2ccccc2OC1`, inactive: 0.562; to `CCC(C)N(CC(C)C)C(=S)SC(NC(C)=O)C(Cl)(Cl)Cl` (stereo not given), inactive: 0.272.
The value for `CCOC(=O)c1ccc(NC(=O)C(C)(CCl)SC)cc1` (stereo not given) was inactive: 0.5.
On to `Cc1cc(SC(NC=O)C(Cl)(Cl)Cl)ncn1` (stereo not given), for which the B-score was inactive: 0.0247.
The value for `O=P(Nc1ccccn1)(c1cccc2ccccc12)c1cccc2ccccc12` was inactive: 0.0382; that for `O=[N+]([O-])c1cc([N+](=O)[O-])c(-c2ccn[nH]2)s1` was inactive: -1.35.
To `CC(C)NC(=O)NP(=O)(Oc1ccccc1)Oc1ccccc1` belongs inactive: -1.01.
To `O=[As](O)(c1ccc(O)cc1)c1ccccc1O` belongs inactive: 0.208; to `COc1ccc(N/C(=N/P(=O)(N2CCOCC2)N2CCOCC2)N2CCOCC2)cc1`, inactive: -0.0824; to `COc1cc(I)ccc1[As](=O)(O)O`, inactive: 0.411.
For `COc1ccc2nc(NP(=O)(c3ccccc3)c3ccccc3)sc2c1`, the B-score is inactive: -0.087.
The value for `Cc1c2c(nc3ccccc13)SC(C(Cl)Cl)C2` (stereo not given) was inactive: -2.31; that for `Cc1cc(=O)[nH]c(N[N+](=O)[O-])n1` was inactive: 0.072.

Source of the values: PubChem BioAssay AID1918 (Vanderbilt High Throughput Screening Facility, 2009).
